Experimental data from ChEMBL document CHEMBL4411313, “Substrate-Specific Inhibition Constants for Phospholipase A2 Acting on Unique Phospholipid Substrates in Mixed Micelles and Membranes Using Lipidomics” (J Med Chem, 2019).

Columns and labels:
[1] = target: Secretory phospholipase A2; test: Inhibition of human recombinant sPLA2 assessed as reduction in 16:0 LPC formation after 30 mins by HPLC-MS analysis; type: protein assay
[2] = target: Secretory phospholipase A2; test: Inhibition of human recombinant sPLA2 assessed as reduction in free FA formation after 30 mins by HPLC-MS analysis; type: protein assay

Compound: CCc1c(C(=O)C(N)=O)c2c(OCC(=O)O)cccc2n1Cc1ccccc1 [VARESPLADIB]
- IC50 [1]: 114 nM
- IC50 [2]: 131 nM
